# Ab-14 heavy chain CDR variants: yeast mating affinities

Target peptide (SARS-CoV-2 spike, HR2 region): PDVDLGDISGINAS

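Designed CDR sequences, proposed from the first random library and measured here. Several design methods are mixed in this list. The assay is AlphaSeq: two haploid yeast populations carry antibody and antigen on their surface. Binding brings cells together so that they mate, and sequencing counts the barcode pairs among the diploids. Scores were corrected for input abundance and mapped to Kd with protein pairs of known affinity run in the same pool. Mating was done six times.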

Parent: Ab-14, a human scFv built as VH, a 15-residue (Gly4Ser)3 linker, VL. Only the CDRs of the heavy chain vary.
VH: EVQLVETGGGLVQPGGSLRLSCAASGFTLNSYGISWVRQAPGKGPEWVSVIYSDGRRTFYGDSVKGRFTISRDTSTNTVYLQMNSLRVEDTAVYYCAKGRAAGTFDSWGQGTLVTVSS
VL: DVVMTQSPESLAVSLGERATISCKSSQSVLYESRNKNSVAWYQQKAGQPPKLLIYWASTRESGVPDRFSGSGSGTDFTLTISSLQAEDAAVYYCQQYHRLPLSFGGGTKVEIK

Substitutions are numbered in sequence along the VH above, starting at 1 (not Kabat).
This list holds designs with at most six substitutions.
Scale: log10 of Kd in nM, estimated from mating counts; low values are strong binders.
"ND" means that the variant was in the library but no mating with the target was seen in that replicate; the authors take this as a sign of poor binding, and no number exists.

changes,"log10 Kd, replicates"
S31E/G61H/A101F,0.27 0.60 0.18 -0.66 0.78 0.10
T28W/S31E/S107V,0.96 0.88 ND 0.90 1.81 1.17
F59M/G61I,ND ND ND ND ND 2.35
F27W/T28D/G55C/T104W/D106N,ND ND ND ND ND ND
I34H/G61N/G99R/A101G,1.52 1.18 1.90 1.08 0.72 1.25
N30A/S107Q,1.63 ND ND ND ND 2.14
G61L/D62N/G103R,ND ND ND ND ND ND
T28S/A101V/S107K,0.33 0.75 0.11 -0.22 0.36 -0.21
T28D/S63P/A101T/S107D,1.12 1.01 ND 1.38 1.69 2.16
T28Q/S31E/R100S/S107L,ND ND ND ND ND ND
G61A/R100Q/A101T/S107T,-0.13 0.29 -0.21 -0.04 -0.48 0.07
T28D/S31D/R100T,0.07 0.18 0.48 0.14 -0.09 0.41
F27N/S31Q/Y32D/G61S/R100D/T104F,ND ND ND ND ND 2.92
F27E/S53A/G61A,-0.66 ND ND -0.77 0.34 -1.42
F27E/R100Q,ND ND 2.23 ND ND ND
S31D/S53A/S107I,ND 1.04 0.46 0.21 0.31 1.29
A102T/D106R/S107L,ND ND ND ND ND ND
R56M/G61A/A101T/D106W,ND ND ND ND ND ND
T28S/R100T,2.20 0.38 0.38 1.29 0.57 0.48; -0.19 0.31 0.37 -0.04 0.06 0.27
T28Q/S31E/G61S/R100E,0.39 0.50 0.57 1.43 0.50 0.93
T104W/S107L,ND ND ND ND ND ND
T28S/G61V/A101H,2.47 ND ND 1.52 2.81 1.80
G26H/T28I/S31Q/G61T/T104I,ND ND ND ND ND ND
T28Q/A101E/S107V,1.30 0.46 0.74 0.57 0.20 0.78
N30S/R100T,ND 0.99 ND 0.67 2.70 1.74
T28D/R56K/G61K/A101Q,1.15 1.19 0.41 0.19 1.04 0.63
N30D/S63R/A101T,1.58 1.11 0.97 1.81 0.87 1.21
T28Q/S31D/G61K,1.00 0.39 1.01 0.87 0.67 0.57
N30E/I34Y/S107Q,ND ND ND ND ND ND
G61S/A101Q,ND ND ND 0.75 ND ND; ND -0.50 0.04 -0.02 0.59 2.01
S63D/R100E/A101W/T104L,ND ND ND ND ND ND
G26K/T28D/R100E,1.96 1.80 1.59 2.02 2.97 2.74
S31E/F59Y/G61T/A101F,0.46 0.77 0.62 0.55 0.59 0.44
R56V/G61S/A102G,0.98 1.00 1.47 1.96 1.68 1.98
T28D/A101G/D106E,ND ND ND ND ND ND
G61D/R100Q/A101L/S107T,ND 1.22 0.95 2.31 0.91 1.04
G61D/R100V/A101N,-0.70 -0.48 0.05 -0.40 1.70 ND
T28D/G61Q/A101E/S107D,0.34 0.25 0.37 0.58 0.31 0.19
F27E/R100S/A101V/D106I,1.75 1.14 1.41 1.34 1.41 1.23
T28Q/S31E/S53A/D106I,ND ND ND ND ND ND
R56V/A102T,ND ND ND ND ND ND
T28S/R100K/A101T/S107W,ND 2.72 ND ND ND ND
T28S/S31E/R100N/S107T,-0.23 -0.23 -0.57 -0.93 -1.09 -0.81
T28S/S31E/G61V,0.29 0.28 0.39 0.30 0.06 0.54
S31E/G61T/A101F/D106I,ND ND ND ND ND ND
T28W/S31M/A101E/S107T,ND 0.61 1.04 1.62 1.24 1.28
T28S/G61S/R100M/A101L,0.22 0.06 0.08 -0.22 0.00 0.35

From the list, the first 6 with no signal in any replicate:

| changes | log10 Kd, replicates |
|---|---|
| F27W/T28D/G55C/T104W/D106N | ND ND ND ND ND ND |
| G61L/D62N/G103R | ND ND ND ND ND ND |
| T28Q/S31E/R100S/S107L | ND ND ND ND ND ND |
| A102T/D106R/S107L | ND ND ND ND ND ND |
| R56M/G61A/A101T/D106W | ND ND ND ND ND ND |
| T104W/S107L | ND ND ND ND ND ND |

Where one sequence has several entries in the source, the replicates are listed entry by entry, parted by semicolons.
Nonspecific signal, from three strains lacking the peptide, appeared in 1% of pairings of all heavy chain designs, centred on 2.08 (5% of these signals below 0.84); values are not corrected for it.
Values of this round are not directly comparable with the first-round values of the same sequences.
The authors' rule: three or more of the six replicates give a measured affinity, fewer mean a poor binder.

Reference: Li et al. 2023, doi:10.1038/s41467-023-39022-2. File: FLAb, binding data.